We go through one substance from publication PMC2896345.

pKd: −log10 of the molar value.

Test [1] concerns the target human RACK1 (receptor of activated kinase 1), 6xHis-tagged (human) (UniProt P63244). In words: AUC; sedimentation equilibrium, 4 °C, 12,000, 15,000 and 18,000 rpm; RACK1 at 0.3 mg/mL; monomer-dimer-tetramer self-association model (SedPhat); step: dimer to tetramer.
Test [2] has the same target. In words: AUC; sedimentation equilibrium, 4 °C, 12,000, 15,000 and 18,000 rpm; RACK1 at 0.3 mg/mL; monomer-dimer-tetramer self-association model (SedPhat); step: monomer to dimer.

What is called pKd is −log10 of the Kd, conventionally taken in molar units. Higher therefore signals a small Kd. In test [1], “human RACK1 (receptor of activated kinase 1), 6xHis-tagged (from UniProt P63244 1-317) (natural protein)” had a Ka of 600000 M⁻¹ and a negative-log Kd (pKd) of 4.77. In test [2], this substance had a Ka of 200000 M⁻¹ and a negative logarithm of the Kd (pKd) of 4.29.
